Data taken from paper PMC5508536 (Bioorganic & medicinal chemistry letters, 2017).

Amino acid sequences for entries named in this document (tags omitted).
UniProt P08912, whole entry: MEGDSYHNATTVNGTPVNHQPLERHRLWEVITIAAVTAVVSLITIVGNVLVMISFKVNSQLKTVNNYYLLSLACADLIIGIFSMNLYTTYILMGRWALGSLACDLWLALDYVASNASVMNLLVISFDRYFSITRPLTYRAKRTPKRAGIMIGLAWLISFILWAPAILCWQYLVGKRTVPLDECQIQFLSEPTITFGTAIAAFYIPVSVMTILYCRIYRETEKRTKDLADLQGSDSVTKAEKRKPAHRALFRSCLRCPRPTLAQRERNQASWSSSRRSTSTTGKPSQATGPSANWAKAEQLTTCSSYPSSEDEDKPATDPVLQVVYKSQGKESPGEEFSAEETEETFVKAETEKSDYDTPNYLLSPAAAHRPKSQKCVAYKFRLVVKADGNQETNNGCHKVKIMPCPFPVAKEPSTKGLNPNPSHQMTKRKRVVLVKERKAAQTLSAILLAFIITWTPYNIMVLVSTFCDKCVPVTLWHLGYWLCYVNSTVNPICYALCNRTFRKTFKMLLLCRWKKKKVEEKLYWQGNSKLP

Target: hM5 (Homo sapiens, UniProt P08912)
Assay: hM5 functional assay
Type: cell-based
Settings: recombinant hM5 cells, in the presence of an ACh EC80

Row | Compound | hM5 pIC50 (±SEM)
1 | Cc1cc(C23c4ccccc4C(=O)N2CCN3C(=O)c2ccc(F)c(F)c2)ccc1Cl (centres unmarked) [compound 9, 9b-(4-chloro-3-methyl-phenyl)-1-(3,4-difluorobenzoyl)-2,3-dihydroimidazo[2,1-a]isoindol-5-one] | 5.75±0.03
2 | Cc1cc([C@@]23c4ccccc4C(=O)N2CCN3C(=O)c2ccc(F)c(F)c2)ccc1Cl [compound 11, 9b-(4-chloro-3-methyl-phenyl)-1-(3,4-difluorobenzoyl)-2,3-dihydroimidazo[2,1-a]isoindol-5-one] | 5.93±0.02
